Experimental data from US6645976B1 (Eli Lilly and Company, priority 1994, dated 2003).

Molecular target: T1, recombinant human secreted phospholipase A2 (Homo sapiens, UniProt P14555)
T1 sequence (P14555 21-144): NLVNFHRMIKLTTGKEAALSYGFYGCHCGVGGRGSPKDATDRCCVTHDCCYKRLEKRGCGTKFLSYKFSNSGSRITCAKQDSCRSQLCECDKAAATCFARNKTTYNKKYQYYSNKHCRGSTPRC
Assay: sPLA2 Chromogenic Assay (Assay 1)
Type: biochemical
Details: diheptanoyl thio-PC substrate, pH 7.5, 40° C. for 30 minutes, absorbance at 405 nanometers

2-(3-Biphenyl-2-ylmethyl-8-(1-cyclopentyloxycarbonyloxymethyloxy-carbamoanecarbonyl-2-ethylindolizin-1-yl)glyoxylamide [Compound 59f]
pIC50: 7.15

pIC50: −log10 of the molar value.
